# Reference: patent publication US10792232B2, “Methods to deliver antifibrinolytic drugs for anti-aging results” (MURDOCK TECHNOLOGIES, LLC, priority 2016, dated 2020)
# System: surface of the face
# Conditions: 1-2 ml of 10% aqueous solution applied to surface of the face
# From the text: The present invention is based on the realization that the aging process and its physical effects on the skin and body involve the activation of a fibrinolytic process. […] The dosage of antifibrinolytic agent(s) should be less than 6 grams per day. […] A particularly advantageous manner of administration for topical delivery is by single use pre-impregnated towelettes applied to the area of the skin to be treated.
smiles,measurement,value
NC[C@H]1CC[C@H](C(=O)O)CC1 [tranexamic acid],absorption of the liquid into the skin,almost immediately absorbed into the skin
